Molecules are shown by their SMILES.

By UniProt entry, the sequences of proteins in these tests, tags left out.
UniProt P23975, whole entry: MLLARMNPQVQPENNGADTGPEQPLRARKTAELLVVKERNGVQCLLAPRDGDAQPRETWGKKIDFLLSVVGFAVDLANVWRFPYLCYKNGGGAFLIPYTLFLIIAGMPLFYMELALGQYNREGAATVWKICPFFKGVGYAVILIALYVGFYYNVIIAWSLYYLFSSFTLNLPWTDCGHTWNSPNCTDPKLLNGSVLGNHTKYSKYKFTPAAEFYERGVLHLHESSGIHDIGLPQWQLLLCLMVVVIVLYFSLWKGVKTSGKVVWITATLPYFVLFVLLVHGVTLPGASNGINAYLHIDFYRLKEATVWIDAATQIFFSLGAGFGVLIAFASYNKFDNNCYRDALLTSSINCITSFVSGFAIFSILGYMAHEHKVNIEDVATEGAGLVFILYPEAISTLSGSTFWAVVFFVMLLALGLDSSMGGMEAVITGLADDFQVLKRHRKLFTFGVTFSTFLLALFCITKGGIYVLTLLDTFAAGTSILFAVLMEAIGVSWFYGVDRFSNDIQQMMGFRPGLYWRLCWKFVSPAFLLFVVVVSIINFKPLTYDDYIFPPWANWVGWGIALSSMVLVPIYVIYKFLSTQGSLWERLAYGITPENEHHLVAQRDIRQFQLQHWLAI

The target of this experiment is Sodium-dependent noradrenaline transporter (Homo sapiens, UniProt P23975). Put plainly: biochemical.
As usually defined, the Ki is the dissociation constant of the complex between target and ligand, obtained from inhibition or displacement. Lower therefore signals tighter binding. For the compound `COc1cc(Cl)ccc1O[C@H](c1ccccc1)[C@H]1CNCCO1`, affinity was put at a Ki of 420 nM.

`COc1cc(Cl)ccc1OC(c1ccccc1)C1CNCCO1` (racemic; anti) returned an inhibitory constant (Ki) of 320 nM.

In the case of `COc1cc(Cl)ccc1OC(c1ccccc1)C1CNCCO1` (racemic; syn), the Ki amounted to 36 nM. This Ki lies about 8.9-fold lower than the previous one.

For the compound `COc1cc(Cl)ccc1O[C@@H](c1ccccc1)[C@@H]1CNCCO1`, the Ki was 8 nM.

The values are drawn from ChEMBL document CHEMBL1144811, “Design and synthesis of morpholine derivatives. SAR for dual serotonin & noradrenaline reuptake inhibition” (Bioorg Med Chem Lett, 2008).
